Data published in patent US4880014A, “Method for determining therapeutic drug dosage using bioelectrical resistance and reactance measurements” (priority 1988, dated 1989).

Details: human, in vivo, iv
Description: Twelve human subjects participated in the following study. The resistance (R) and the reactance (Xc) of each patient was measured using a four-terminal impedance plethysmograph. During the measurement, the subjects were placed in the supine position on an insulative surface. The electrodes were attached in the following manner. Those areas of the patient's skin where the electrodes were to be connected were cleaned thoroughly with alcohol. […]
The elimination rate constant was determined by nonlinear regression analysis of the serum concentration data for each patient using Micrononlin (Micrononlin, Elite Software, box 11223. Pittsburgh. PA 15238).
Volume of distribution was calculated by the Sawchuk-Zaske method.
Calculation of (K) and (V) from the measured serum concentration data was performed as were the dosage regimens using the measured serum concentration data by the equations of Sawchuk and Zaske which will be known to those skilled in the art.

With gentamicin the “Volume of Distribution (V), Meas., mean” value was “.345 kg⁻¹”.
